The values that follow come from patent US20210024596A1.

For experiment [1], the target named is prothrombin (human) (UniProt P00734). Put plainly: SPR (Biocore X-100), histone captured on SA chip, prothrombin injected; histone H3.
Experiment [2] has the same target. Put plainly: cell-based or functional assay.
Experiment [3] shares this target. Put plainly: SPR (Biocore X-100), histone captured on SA chip, prothrombin injected; histone H2B.
Experiment [4] shares this target. Put plainly: SPR (Biocore X-100), histone captured on SA chip, prothrombin injected; histone H4.

In the experiment with prothrombin (human) [1], histone H3 (from UniProt P68431 2-136) returned a Kd of 680 nM. Besides, in the experiment with prothrombin (human) [2], the thrombin generated in 90 seconds (prothrombinase activity), phospholipids absent came to 3.03 nmol/L and the thrombin generated in 90 seconds (prothrombinase activity), phospholipids present is 3.43 nmol/L.
Turning to histone H2B (from UniProt Q16778 2-126), in the experiment with prothrombin (human) [3], the dissociation constant Kd amounted to 330 nM.
In turn, histone H4 (from UniProt P62805 2-103) displayed a Kd with prothrombin (human) [4] of 440 nM. In the experiment with prothrombin (human) [2], this substance displayed a thrombin generated in 90 seconds (prothrombinase activity), phospholipids absent of 4.42 nmol/L and a thrombin generated in 90 seconds (prothrombinase activity), phospholipids present of 4.71 nmol/L.
